ChEMBL document CHEMBL4765391, “Design, synthesis, and Structure-Activity Relationships (SAR) of 3-vinylindazole derivatives as new selective tropomyosin receptor kinases (Trk) inhibitors” (Eur J Med Chem, 2020)

Protein sequences, listed by entry. Tags and fused reporters are not part of them.
UniProt Q16620, whole entry: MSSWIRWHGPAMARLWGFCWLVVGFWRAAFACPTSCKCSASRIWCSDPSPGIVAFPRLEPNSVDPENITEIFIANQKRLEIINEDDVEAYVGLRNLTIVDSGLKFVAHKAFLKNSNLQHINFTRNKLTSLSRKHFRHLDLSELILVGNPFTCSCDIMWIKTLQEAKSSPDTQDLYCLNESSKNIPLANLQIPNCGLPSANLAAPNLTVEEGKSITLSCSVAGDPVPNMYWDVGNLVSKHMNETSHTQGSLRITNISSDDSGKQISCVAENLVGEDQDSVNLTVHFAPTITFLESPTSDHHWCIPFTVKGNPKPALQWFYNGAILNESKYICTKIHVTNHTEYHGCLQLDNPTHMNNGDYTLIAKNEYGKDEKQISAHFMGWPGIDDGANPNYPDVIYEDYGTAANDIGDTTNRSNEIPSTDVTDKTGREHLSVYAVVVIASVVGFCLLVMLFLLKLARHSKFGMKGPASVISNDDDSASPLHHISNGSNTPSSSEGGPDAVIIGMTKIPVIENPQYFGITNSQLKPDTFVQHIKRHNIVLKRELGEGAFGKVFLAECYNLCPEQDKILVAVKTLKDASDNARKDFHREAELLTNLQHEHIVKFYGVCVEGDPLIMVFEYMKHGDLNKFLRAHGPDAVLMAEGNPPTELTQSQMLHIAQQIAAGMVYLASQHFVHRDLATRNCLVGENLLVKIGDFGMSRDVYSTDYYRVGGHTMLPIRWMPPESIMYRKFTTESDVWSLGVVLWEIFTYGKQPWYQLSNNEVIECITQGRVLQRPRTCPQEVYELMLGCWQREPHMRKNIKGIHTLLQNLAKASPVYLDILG

How the values were obtained:
[1] = biological target: T1, BDNF/NT-3 growth factors receptor (Homo sapiens, UniProt Q16620); experiment: Inhibition of TrkB (unknown origin) using Tyr1 peptide as substrate in presence of ATP measured after 2 hrs by FRET-based Z-Lyte kinase assay
[2] = biological target: T1, BDNF/NT-3 growth factors receptor; experiment: Binding affinity to wild-type human partial length TRKB (Q547 to G838 residues) expressed in mammalian expression system by Kinomescan method relative to control

C[C@@H](Nc1ccc2[nH]nc(/C=C/c3ccccn3)c2c1)c1cc(F)cc(F)c1
IC50 [1]: 2.9 nM | Kd [2]: 3.1 nM
